# Laboratory results taken from US8003632B2, “Cholinesterase inhibitors for treating inflammation” (priority 2004, dated 2011).
# Test system: murine model of lethal endotoxemia
# Assay type: in vivo, mice
# Settings: 14 days after endotoxin; 0.2 mg/kg i.p. 30 minutes before endotoxin; vehicle about 5%
compound,measurement,value
CNC(=O)Oc1ccc2c(c1)[C@]1(C)CCN(C)[C@@H]1N2C [Physostigmine],mice survived,about 80%
